The chains behind the UniProt entries cited, without tags or fusion partners.
UniProt Q92769, whole entry: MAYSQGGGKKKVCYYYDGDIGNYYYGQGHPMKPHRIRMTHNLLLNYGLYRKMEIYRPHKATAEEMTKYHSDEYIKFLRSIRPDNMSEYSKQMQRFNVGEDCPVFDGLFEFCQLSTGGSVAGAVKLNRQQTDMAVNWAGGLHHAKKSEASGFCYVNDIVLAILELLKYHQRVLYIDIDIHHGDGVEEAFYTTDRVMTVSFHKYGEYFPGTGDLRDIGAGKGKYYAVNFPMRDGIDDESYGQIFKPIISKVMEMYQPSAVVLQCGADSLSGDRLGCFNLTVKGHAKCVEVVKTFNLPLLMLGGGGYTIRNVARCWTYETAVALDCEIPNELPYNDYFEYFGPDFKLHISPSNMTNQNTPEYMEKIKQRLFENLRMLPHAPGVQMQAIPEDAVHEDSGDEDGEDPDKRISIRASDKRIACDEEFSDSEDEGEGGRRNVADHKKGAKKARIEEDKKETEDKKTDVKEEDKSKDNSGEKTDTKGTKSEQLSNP

In patent publication US10188756B2, “Imaging histone deacetylases with a radiotracer using positron emission tomography” (THE GENERAL HOSPITAL CORPORATION, priority 2013, dated 2019):

Molecular target: HDAC2 (Homo sapiens (Human), UniProt Q92769)
Experiment: HDAC inhibition assay
Format: biochemical
Source text: All histone deacetylases were purchased from BPS Bioscience. […] All the other reagents were purchased from Sigma-Aldrich.

## CN(Cc1ccc(/C=C/C(=O)NO)cc1F)CC12CC3CC(CC(C3)C1)C2 [CN149]
  IC50: 7 nM
